Test system: ALK (Δ4-11) in CLB-BAR cells

COc1cc(N2CCC(N3CCN(C)CC3)CC2)ccc1Nc1ncc(Cl)c(Nc2ccccc2P(C)(C)=O)n1 [brigatinib]
concentration at which phosphorylation of ALK was abolished: 50 nM
